# Measurements reported in patent US12188086B2, “Nucleotide analogues and use thereof for nucleic acid sequencing and analysis preliminary class” (The Trustees of Columbia University in the City of New York, priority 2018, dated 2025).
# Assay: THP cleavage of SS linker / 3′ blocking group on extended primer (MALDI-TOF MS)
# Type: physicochemical
# Experimental: Tris(hydroxypropyl)phosphine (THP) (1 μL, 1 mM) was added to the azo cleaved extended primer (9 μL, 15 μM) (E8TT+3′-O-t-butyl-SS-dTMP-PEG4-aniline, 6009.44 Da). […] After the spin column-based nucleic acid purification (ZymoPURE Oligo Clean & Concentrator), the product was confirmed by MALDI-TOF MS: 5881.4 Da (calc'd: 5874.9 Da). […]
substance,measurement,value
ddGTP-7-SS-Cy5,cleavage of SS linker on extended primer,complete cleavage
